{"sequences": {"note": "The chains behind the UniProt entries cited, without tags or fusion partners.", "UniProt P32245, whole entry": "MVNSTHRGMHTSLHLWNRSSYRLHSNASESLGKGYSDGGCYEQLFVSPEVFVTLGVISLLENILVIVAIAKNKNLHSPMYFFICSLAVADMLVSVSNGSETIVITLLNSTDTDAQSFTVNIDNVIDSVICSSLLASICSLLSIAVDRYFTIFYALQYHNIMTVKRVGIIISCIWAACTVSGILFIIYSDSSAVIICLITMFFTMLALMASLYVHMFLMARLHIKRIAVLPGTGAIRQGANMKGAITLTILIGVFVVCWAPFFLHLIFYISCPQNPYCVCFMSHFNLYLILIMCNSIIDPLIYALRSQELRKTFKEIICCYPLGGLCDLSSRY"}, "source": "patent US7368433B2", "about": "“Peptides and methods for the control of obesity” (University of Florida Research Foundation, Inc., priority 2002, dated 2008)", "origin": "cited, not measured here", "target": "T1, human MC4R (Homo sapiens, UniProt P32245)", "T1 construct": "expressed in transfected cells; host or cells: HEK-293", "settings": "literature (Yang et al 2000; Danho et al); read-out: agonist activity at the human MC4 receptor; cited from earlier work", "data": [{"smiles": "CC(=O)N[C@@H](Cc1cnc[nH]1)C(=O)N[C@H](Cc1ccccc1)C(=O)N[C@@H](CCCN=C(N)N)C(=O)N[C@@H](Cc1c[nH]c2ccccc12)C(N)=O", "note": "[JRH279-31, Ac-His-DPhe-Arg-Trp-NH2]", "values": [{"measurement": "EC50", "result": "8 to 10", "unit": "nM"}]}]}
